# AlphaSeq binding of Ab-14 light chain variants to a spike HR2 peptide

The target is the same throughout: PDVDLGDISGINAS, from the HR2 region of SARS-CoV-2 spike.

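The starting antibody came from a phage panning campaign against this peptide. Library AAYL50 holds single substitutions and randomly drawn double and triple substitutions in the CDRs. In AlphaSeq, yeast of one mating type display the scFv and yeast of the other type display the target. The frequency of each diploid, read from paired DNA barcodes, reflects how well the two displayed proteins bind. Each replicate has its own calibration line, from reference interactions of the BCL2 family. Mating was done three times.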

Each scFv is VH, a 15-residue (Gly4Ser)3 linker, VL, as in the parent Ab-14, and differs from it in the CDRs of the light chain only.
VH: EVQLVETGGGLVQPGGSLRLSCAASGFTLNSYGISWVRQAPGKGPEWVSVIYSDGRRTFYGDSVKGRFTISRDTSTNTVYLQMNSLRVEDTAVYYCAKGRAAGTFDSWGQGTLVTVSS
VL: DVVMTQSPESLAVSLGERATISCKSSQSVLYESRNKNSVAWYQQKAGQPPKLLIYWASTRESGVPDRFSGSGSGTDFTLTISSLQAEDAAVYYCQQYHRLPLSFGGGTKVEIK

Variants are written as CDR1, CDR2 and CDR3 of the light chain (limits as in the source). Parent: KSSQSVLYESRNKNSVA, WASTRES, QQYHRLPLS.
The read-out is the apparent dissociation constant on a log10 scale (nM): the lower, the stronger.
A mean of the replicates is given; it leaves out those without a signal.
An entry "no signal" has no value in the source: the pair was not observed among the diploids in any replicate. This suggests poor binding but is not conclusive.
Empty control strains, which show no peptide, gave a signal in 18% of pairings with library AAYL50; the median was 4.19 and 95% of these signals were weaker than 2.99. No background was subtracted.

| CDR-L1 | CDR-L2 | CDR-L3 | mean log10 Kd (nM) | detected |
|---|---|---|---|---|
| KSSQSVLYHSRNKNSVA | WASLRES | QQWHRLPLS | no signal | 0 of 3 |
| KSRQSVLYESRNKNSVA | IAWTRES | QQYHRLPLS | 4.95 | 1 of 3 |
| KSSQSVLYEYRNKNSVA | WASTREI | QQYTRLPLS | 1.86 | 3 of 3 |
| KSSQSVLYESRNFNSVA | WASTRTP | QQYHRLPLS | 0.60 | 3 of 3 |
| KSRQSVLYESRNKNSVA | WASTRES | QQHHRLPLK | 1.97 | 1 of 3 |
| VSSQSVLYESRNTDSVA | WASTRES | QQYHRLPLS | 1.88 | 3 of 3 |
| KSSQSVLYESRNKNAVA | WASIRES | QQYIRLPLS | 0.73 | 3 of 3 |
| KSSWSVLYESRNKNSVA | WQQTRES | QQYHRLPLS | 2.93 | 2 of 3 |
| KSSQSVLYESRRKNWVQ | WASTRES | QQYHRLPLS | no signal | 0 of 3 |
| KSSQSVLYESRNKNEVA | WASTRES | QQYHRLPLV | 3.21 | 3 of 3 |
| KSGQSVLYESRNKNSYA | WASTRES | QQYHRLPLS | 4.00 | 2 of 3 |
| KSSQSSLYEDRNKNSVA | WISTRES | QQYHRLPLS | 3.97 | 3 of 3 |
| KSSQSVLYESRNCNSVD | WASTRES | QPYHRLPLS | 4.69 | 1 of 3 |
| KSSQSVLYESRNPNSVA | WASTRES | QQYNRLPLS | 0.96 | 3 of 3 |
| KSPQSVLYESRNKNEVA | WASTRCS | QQYHRLPLS | no signal | 0 of 3 |
| KLSQSVLYESRNKNSVA | SASTRWS | QQYHRLPLS | -0.41 | 3 of 3 |
| KSSQSVLQESRNKNSVA | WASTRES | GQYHRLPES | 0.63 | 3 of 3 |
| KSSQSVLYHSRNKNSVA | WASTRES | VQYHELPLS | 5.74 | 1 of 3 |
| KSNQSVLFESRNKNSVA | WASTRGS | QQYHRLPLS | 2.51 | 3 of 3 |
| KSSQSVLYESYNKNSVA | WAHDRES | QQYHRLPLS | 1.14 | 3 of 3 |
| KWSQSVLYESRAKNSVA | WASTRES | QQYYRLPLS | 0.69 | 3 of 3 |
| KSSYSVLYEMRHKNSVA | WASTRES | QQYHRLPLS | 2.66 | 3 of 3 |
| KSSSSVLYESRNKNSVA | WASMRED | QQYHRLPLS | 3.34 | 2 of 3 |
| KSSQSVLEESRNKNSVA | PASTKES | QQYHRLPLS | no signal | 0 of 3 |
| KSSQMVLYEPRVKNSVA | WASTRES | QQYHRLPLS | 1.76 | 3 of 3 |
| KSSQSVLYESRFKRGVA | WASTRES | QQYHRLPLS | no signal | 0 of 3 |
| KSSYSVLYESRNKNSVA | WASTRES | QMYHRDPLS | 1.01 | 3 of 3 |
| KSSQSVLYESRMKNSVA | MASTRES | QQYCRLPLS | 2.57 | 3 of 3 |
| KSSQSVLYESRNKNSVA | WASTRTS | QQYMRPPLS | 0.94 | 3 of 3 |
| KCSQSVLYESRNKNSVA | WASTRES | QQSHRLPLL | no signal | 0 of 3 |
| KSSQSVTYESRNKNTVA | WASTIES | QQYHRLPLS | no signal | 0 of 3 |
| KSSQSVFYESRNKNSVA | WASTRWS | QQYHALPLS | 1.44 | 3 of 3 |
| KSSQSVLYESRNKNMVA | WASTRFR | QQYHRLPLS | 3.48 | 2 of 3 |
| KSSQSVLYESRNKTSVA | WASTRES | QQPHRLPLM | 1.20 | 3 of 3 |
| KSSQSVLYESRNKCSVA | LASTRES | QQYHRLPLD | 4.72 | 2 of 3 |
| KSSQSVQYESRNKNSVA | CASTREN | QQYHRLPLS | 2.33 | 3 of 3 |
| KSSQNVLYERRNKNSVA | WASPRES | QQYHRLPLS | no signal | 0 of 3 |
| KSSQSWLYESRNKNSVA | WASTRET | QDYHRLPLS | 0.97 | 3 of 3 |
| KYSQSVLKESRNKNSVA | WASTRES | QQYHRQPLS | no signal | 0 of 3 |
| KSSQSVLYESRNKNSVA | WASTDEN | QQYHRYPLS | 4.00 | 1 of 3 |
| KSIQSVLYTSRNKNSVA | WASTRES | QQYHRVPLS | 4.17 | 3 of 3 |
| KSRQSVLFESRNKNSVA | WASTRES | QQKHRLPLS | 1.25 | 3 of 3 |
| KSGQSVLYESRNSNSVA | WASTRES | QGYHRLPLS | 2.21 | 3 of 3 |
| KSSQSVLYESRNQNSVA | WASTRES | QQAHRHPLS | no signal | 0 of 3 |
| NSSQSVLYESRNKNSVA | WASTVES | QLYHRLPLS | 4.60 | 1 of 3 |
| KSSQSVLYESRNKNSVN | WASTGED | QQYHRLPLS | no signal | 0 of 3 |
| KSSQSVLYESRNKNSVA | SASTNES | QQYHRLPMS | 2.68 | 1 of 3 |
| KSSQSVLYEMLNKNSVA | WASTRES | QQYHRLHLS | no signal | 0 of 3 |
| KSSQSVLYESRNKNEWA | WASTRES | QQYGRLPLS | no signal | 0 of 3 |
| GSSQSVLYESRNKWSVA | WASTRES | QQYHELPLS | 2.64 | 3 of 3 |
| KSSQSVLYESRNKNSVA | WASTRES | DQYHRLPDS | 2.12 | 3 of 3 |
| KSSQSVLYESRNKNSVA | WAKTRDS | QQYHRLDLS | no signal | 0 of 3 |
| KSSQSVLYASREKESVA | WASTRES | QQYHRLPLS | 1.26 | 3 of 3 |
| KSSQKVLYESGNKGSVA | WASTRES | QQYHRLPLS | 1.24 | 3 of 3 |
| KSSQSVLYEFRNKNSVA | MASTRES | QQYHRLPLS | no signal | 0 of 3 |
| KSSQYVLYESWNKNSVA | WASTRES | QQYHRLPLS | 2.67 | 3 of 3 |
| KSSIHVLYESRNKNSVA | WASTRES | QQFHRLPLS | no signal | 0 of 3 |
| KSSQSVLYESRNKYSVA | WASTRES | QDNHRLPLS | no signal | 0 of 3 |
| KKSQSVLHESRNKNLVA | WASTRES | QQYHRLPLS | 5.77 | 1 of 3 |
| KSSQSVLYESRNKNSVA | WDCTRES | QQYHRLVLS | 3.87 | 3 of 3 |
| KSSQSSLYESRNKNSVA | PAGTRES | QQYHRLPLS | 3.56 | 1 of 3 |
| KSSQSALYESRNKNHVA | WASTRES | QQYVRLPLS | 1.23 | 3 of 3 |
| KSVQSVLYESRNKNSVA | WASTRES | QQYMRLELS | 3.47 | 2 of 3 |
| KSMQSVLYDSRNKNSVA | WASTRES | QQYSRLPLS | 0.55 | 3 of 3 |
| KSSQSVLYESRNKNSVA | WACTRES | QQYHRYPLS | no signal | 0 of 3 |
| KSSQSVLYESRNKNSVA | WASTWES | MQCHRLPLS | 4.58 | 2 of 3 |
| KSSMSVLYESRMKYSVA | WASTRES | QQYHRLPLS | 1.22 | 3 of 3 |
| KSSQNVLYESRNKGSVA | WASTRES | QQYHRLPYS | 2.92 | 3 of 3 |
| HSSQSVLYESRNKNSVA | WASTRCS | QCYHRLPLS | 1.70 | 3 of 3 |
| KSSQSVLVQSRNKNDVA | WASTRES | QQYHRLPLS | 1.96 | 3 of 3 |
| KSSQPVLYESRWKNSVA | WASTRES | QQYHRLPLK | 1.11 | 3 of 3 |
| KSSQSVLYESTNKNSVA | WASTRES | QQYHILPLS | 0.69 | 3 of 3 |
| KSSQSVLYESRNKNRVA | WISTRES | QQYHRHPLS | no signal | 0 of 3 |

From the list, the first 11 with no signal in any replicate:

CDR-L1,CDR-L2,CDR-L3,mean log10 Kd (nM),detected
KSSQSVLYHSRNKNSVA,WASLRES,QQWHRLPLS,no signal,0 of 3
KSSQSVLYESRRKNWVQ,WASTRES,QQYHRLPLS,no signal,0 of 3
KSPQSVLYESRNKNEVA,WASTRCS,QQYHRLPLS,no signal,0 of 3
KSSQSVLEESRNKNSVA,PASTKES,QQYHRLPLS,no signal,0 of 3
KSSQSVLYESRFKRGVA,WASTRES,QQYHRLPLS,no signal,0 of 3
KCSQSVLYESRNKNSVA,WASTRES,QQSHRLPLL,no signal,0 of 3
KSSQSVTYESRNKNTVA,WASTIES,QQYHRLPLS,no signal,0 of 3
KSSQNVLYERRNKNSVA,WASPRES,QQYHRLPLS,no signal,0 of 3
KYSQSVLKESRNKNSVA,WASTRES,QQYHRQPLS,no signal,0 of 3
KSSQSVLYESRNQNSVA,WASTRES,QQAHRHPLS,no signal,0 of 3
KSSQSVLYESRNKNSVN,WASTGED,QQYHRLPLS,no signal,0 of 3

Reference: Engelhart et al. 2022, doi:10.1038/s41597-022-01779-4. File: FLAb, binding data.